Experiments:
[1] = tested on: mouse S-180 sarcoma; test: Anti-tumor effect on mouse transplanted sarcoma S-180 (I.M.); type: in vivo; conditions: CTX 18.0 mg/kg/d x10; outset 22.4, 22.6, 19.3 in three experiments; in g (unit assumed)
From the text: (§1) A solvent blank (i.e., the specifically designed solution illustrated in Table 1), a saline blank as a […] control are used as controls for the in vivo tests. As per the Drug Administration Law of the People's Republic of China, and the rules governing observation of the pharmaco-dynamic study of the therapy action, the tumors were surgically removed from tumor infected mice and were homogenized to form suspensions followed by filtration to make a suspension solution at 1×10^6 -10^7 cell/ml. The suspension was injected (i.e., 0.2 ml per mice) into the test mice for tumor growth until the transplanted tumor cells were established and grew up to a size of 0.5×0.5 cm. The inhibition of mouse transplanted liver tumor and Sarcoma S.180 are evaluated by a series of doses of Inmunsyn E as illustrated in Tables 5 and 6 below for 10 days. The Immunsyn E was administered to mice through muscle injection. […] At the end of the in vivo tests, several parameters such as mouse body weight, average tumor weight and percentage of tumor inhibition, are determined.
(§2) % inhibition rate=(average tumor weight of the solvent group or
(§3) (N.S.)-average tumor weight of the Immunsyn E treated group)/ average
(§4) tumor rate of the solvent group

[2] = tested on: mouse transplanted liver tumor; test: Anti-tumor effect on mouse transplanted liver tumor (I.M.); type: in vivo; conditions: CTX 18.0 mg/kg/d x10; outset 19.9, 20.3, 20.9 in three experiments; in g (unit assumed)
From the text: as §1, §2, §3, §4

Compound: O=P1(N(CCCl)CCCl)NCCCO1 (centres unmarked) [CTX]
- Body weight final [1]: 29.1
- Body weight final [2]: 27.8
